{"source": "patent US5384243A", "about": "(dated 1995)", "key": {"m1 and m3 mACHR [1]": {"system": "m1 and m3 mACHR", "settings": "focus-derived m1 and m3 cells"}, "m1 and m3 mACHR [2]": {"system": "m1 and m3 mACHR", "settings": "focus-derived cells; data not shown"}}}
{"molecule": "C[N+](C)(C)CCOC(N)=O", "note": "[carbachol]", "values": [{"measurement": "foci on replating in presence of carbachol", "setting": "m1 and m3 mACHR [1]", "result": "foci arose"}, {"measurement": "colonies in soft agar in presence of agonist", "setting": "m1 and m3 mACHR [2]", "result": "capable of forming large colonies in soft agar"}]}
